Structures are written as SMILES. The list shows a part of the results, in another mix than the full data. Some tests of the compounds listed are not included; inactive here does not mean inactive elsewhere. Active and inactive are the calls of the source.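 The calls were made as follows: active = inhibition above a set limit, the mean inhibition across every tested compound plus 3 SD (cut at about 29% in these data); inactive = the rest.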

Protein sequences, listed by entry. Tags and fused reporters are not part of them.
UniProt P28566, whole entry: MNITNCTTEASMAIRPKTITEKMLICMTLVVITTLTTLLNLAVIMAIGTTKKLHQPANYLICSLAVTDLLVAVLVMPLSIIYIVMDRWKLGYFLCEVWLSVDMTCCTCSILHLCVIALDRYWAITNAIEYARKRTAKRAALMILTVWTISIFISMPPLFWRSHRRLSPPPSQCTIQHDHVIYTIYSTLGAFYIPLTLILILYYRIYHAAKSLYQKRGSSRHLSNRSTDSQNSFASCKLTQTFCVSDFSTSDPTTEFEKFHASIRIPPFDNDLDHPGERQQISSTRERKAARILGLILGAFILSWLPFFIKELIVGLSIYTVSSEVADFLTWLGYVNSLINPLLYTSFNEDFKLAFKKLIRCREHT

The assay concerns the target 5-hydroxytryptamine receptor 1E (Homo sapiens) (UniProt P28566). Briefly: blockade of human serotonin 5HT1E receptor – cell-based, HTS, primary screen (AID 571).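 Also: signal is the 460 over 535 nm emission ratio of beta-lactamase substrate; 0% = agonist plus DMSO wells and 100% = wells without agonist.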 The note with it: CHO 5-HT1E Ga15 NFAT-bla reporter, FRET, antagonist; at 6 µM; hits give high values.
As for `CN(C)c1cccc(C(=O)NCC2(N(C)C)CCCCC2)c1`, the inhibition is inactive: -12.5%.
Turning to `O=C(OC1CN2CCC1CC2)C(CO)(c1ccccc1)c1ccccc1` (configuration not stated), the inhibition was inactive: -5.8%.

The values are drawn from PubChem BioAssay AID571 (The Scripps Research Institute Molecular Screening Center, 2007).
